These results are taken from PubChem BioAssay AID602141 (Sanford-Burnham Center for Chemical Genomics, 2011).

The entries are a selection whose mix differs from that of the whole data set. Some structures show a salt or complex split into parts, the way the source records it. Active and inactive are the calls of the source.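 The calls were made as follows: active = corrected activity change at or below -50% at 5 µM; inactive = the rest.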

The nature of the assay: cytotoxicity in KKLEB CF airway cells, primary screen, cytotoxicity control for CF NF-kB inhibitor project, cell-based, uHTS, fluorescence assay plates (AID 602141). To be noted: KKLEB CF airway cells viability, ATPlite luminescence, overnight; at 5 µM; hits give low values; cells stimulated with P. aeruginosa culture filtrate. (Cellular ATP, detected with luciferase, serves as a proxy for viable cell number.)
`Cc1c(C(c2ccc3c(c2)OCO3)c2c(C)n(C)n(-c3ccccc3)c2=O)c(=O)n(-c2ccccc2)n1C.O=[N+]([O-])c1cc([N+](=O)[O-])c(O)c([N+](=O)[O-])c1`: the activity change (cytotoxicity) is inactive: -4%.
For the compound `COc1ccc(OP(C)(=O)Nc2cccc(Br)c2)cc1` (stereo not drawn), the activity change (cytotoxicity) was inactive: -6.2%.
In the case of `CN(C)CCOC(=O)C(O)(c1ccccc1)C1CCCCC1` (stereo not drawn), the activity change (cytotoxicity) was inactive: -24.7%.
In the case of `COc1ccc(NP(C)(=O)Oc2ccccc2OC)cc1` (stereo not drawn), the activity change (cytotoxicity) is inactive: -6.5%.
In the case of `CP(=O)(Nc1ccc2c(c1)OCCO2)Oc1ccccc1` (stereo not drawn), the activity change (cytotoxicity) is inactive: -6.6%.
As for `Cc1ccccc1NP(C)(=O)Nc1ccccc1C`, the activity change (cytotoxicity) is inactive: 13.1%.
`CP(=O)(Nc1ccc(SC(F)(F)F)cc1)Oc1ccc(F)cc1` (stereo not drawn): the activity change (cytotoxicity) is inactive: 2.2%.
The value for `CCOP(C)(=S)SCC(=O)NC(C)(CC)C(=O)O` (stereo not drawn) was inactive: -1.3%; that for `O=C(OC1CN2CCC1CC2)c1ccc([N+](=O)[O-])cc1` (stereo not drawn) was inactive: -4.2%.
Turning to `O=C(OCCN1CCN(CCOCc2ccccc2)CC1)C(O)(c1ccccc1)c1ccccc1`, the activity change (cytotoxicity) was inactive: 2.7%.
Under `COc1ccc2c(c1O)-c1c(O)c(OC)cc3c1[C@H](C2)[N+](C)(C)CC3.O=[N+]([O-])c1cc([N+](=O)[O-])c([O-])c([N+](=O)[O-])c1[O-]` stands inactive: 10%; under `O=[N+]([O-])c1cc([N+](=O)[O-])c(Nc2ccc(Cl)cc2)c([N+](=O)[O-])c1`, inactive: -14.1%.
In the case of `CP(=O)(Nc1ccccc1F)Oc1ccccc1` (stereo not drawn), the activity change (cytotoxicity) is inactive: -9%.
With `CC(C)c1ccc(OP(C)(=O)Nc2ccc(SC(F)(F)F)cc2)cc1` (stereo not drawn), the activity change (cytotoxicity) was inactive: 10.5%.
Take `Cc1c([N+](=O)[O-])cc([N+](=O)[O-])c(Br)c1[N+](=O)[O-]`: the activity change (cytotoxicity) is inactive: -1.8%.
Under `CCN(CC)CCCOC(=O)C(O)(c1ccccc1)C1CCCCC1` (stereo not drawn) stands inactive: -2.3%; under `CP(=O)(Nc1ccccc1)Oc1ccc(F)cc1` (stereo not drawn), inactive: -6.3%; under `O=[N+]([O-])c1cc([N+](=O)[O-])c(OC2CCCCC2O)c([N+](=O)[O-])c1` (stereo not drawn), inactive: -1.9%.
Take `CCCCCOc1ccc(NP(C)(=O)Oc2ccc(Cl)cc2Cl)cc1` (stereo not drawn): the activity change (cytotoxicity) is inactive: 13.7%.
As for `CCOC(=O)c1ccc(NP(C)(=O)Oc2ccc(F)cc2)cc1` (stereo not drawn), the activity change (cytotoxicity) was inactive: -2%.
In the case of `COc1ccc(OP(C)(=O)Nc2ccc(SC(F)(F)F)cc2)cc1` (stereo not drawn), the activity change (cytotoxicity) is inactive: 3.4%.
As to `CP(=O)(OCCOc1ccccc1)OCCOc1ccccc1`, the activity change (cytotoxicity) is inactive: 2.8%.
On to `CP(=O)(Nc1ccc(Cl)cc1Cl)Oc1ccccc1` (stereo not drawn), for which the activity change (cytotoxicity) was inactive: 5%.
As for `CCCCCCCCCCCCCCCC1C[N+](C)(C)CCOP(C)(=O)O1` (stereo not drawn), the activity change (cytotoxicity) is inactive: -23%.
Under `Cc1cc(C)cc(OP(C)(=O)Nc2cccc(C(F)(F)F)c2)c1` (stereo not drawn) stands inactive: -1.1%; under `O=C1C(O)=C([N+](=O)[O-])C(=O)C(O)=C1[N+](=O)[O-]`, inactive: 5.8%; under `COc1ccccc1OP(C)(=O)Nc1ccc(C)c(C)c1` (stereo not drawn), inactive: -1.5%.
For `COc1ccc(OP(C)(=O)Nc2ccccc2Br)cc1` (stereo not drawn), the activity change (cytotoxicity) was inactive: 0.7%.
For `O=[N+]([O-])c1cc([N+](=O)[O-])c(Nc2ccccn2)c([N+](=O)[O-])c1`, the activity change (cytotoxicity) was inactive: 4.1%.
Take `Cc1c(NP(C)(=O)Oc2ccc(C(C)C)cc2)c(=O)n(-c2ccccc2)n1C` (stereo not drawn): the activity change (cytotoxicity) was inactive: -10.3%.
Under `COc1ccccc1OP(C)(=O)Nc1ccc(C)cc1C` (stereo not drawn) stands inactive: -10.7%; under `CP(=O)(Nc1ccccn1)Oc1ccccc1` (stereo not drawn), inactive: -3.8%.
Under `CCc1ccc(OP(C)(=O)O)cc1` stands inactive: -11.1%; under `COc1ccccc1OP(C)(=O)Nc1ccc(Br)cc1` (stereo not drawn), inactive: 10.3%.
Under `COc1ccc(OP(C)(=O)Nc2ccccn2)cc1` (stereo not drawn) stands inactive: -21.1%; under `CN(C)CCOC(=O)C(O)(c1ccccc1)C1CCCC1` (stereo not drawn), inactive: -24%; under `CC(C)(C)c1ccc(OP(C)(=O)O)cc1`, inactive: 8.4%.
Turning to `COc1ccccc1OP(C)(=O)Nc1ccccc1Br` (stereo not drawn), the activity change (cytotoxicity) was inactive: 8.8%.
For the compound `CP(=O)(Nc1ccc(Cl)cc1)Oc1ccc(F)cc1` (stereo not drawn), the activity change (cytotoxicity) is inactive: -13%.
For the compound `CN(C)C(=O)c1c([N+](=O)[O-])cc([N+](=O)[O-])cc1[N+](=O)[O-]`, the activity change (cytotoxicity) was inactive: 13.8%.
On to `COc1ccc(OP(C)(=O)Nc2ccc(Br)cc2)cc1` (stereo not drawn), for which the activity change (cytotoxicity) was inactive: 6.2%.
For `CCN(CC)CC(O)COC(=O)C(O)(c1ccccc1)C1CCCCC1` (stereo not drawn), the activity change (cytotoxicity) was inactive: -4.5%.
Under `O=C(OCCCN1CCCC1)C(O)(c1ccccc1)C1CCCCC1` (stereo not drawn) stands inactive: 7%; under `COc1ccccc1OP(C)(=O)Nc1c(C)n(C)n(-c2ccccc2)c1=O` (stereo not drawn), inactive: 6.5%.
For the compound `CCc1ccc(OP(C)(=O)Nc2cccnc2)cc1` (stereo not drawn), the activity change (cytotoxicity) was inactive: 0.9%.
As for `CP(=O)(Oc1ccccc1)N1CCOC1=O` (stereo not drawn), the activity change (cytotoxicity) is inactive: 2.2%.
Consider `CCOC(=O)c1ccc(NP(C)(=O)Oc2ccc(Cl)cc2)cc1` (stereo not drawn), for which the activity change (cytotoxicity) is inactive: 9.3%.
On to `CP(=O)(OC12CC3CC(CC(C3)C1)C2)OC12CC3CC(CC(C3)C1)C2`, for which the activity change (cytotoxicity) was inactive: -15.1%.
